# Screening results as filed in PubChem BioAssay.
# GIV Gai3 FP – inhibitors of GIV peptide binding to Galpha-i3, primary screen, biochemical, fluorescence polarization, FITC-GIV GBA peptide, rat Galphai3; 90 min; stronger effect = lower value; scaled: aluminum fluoride 0%, vehicle 100%; percent of control (FP), % (no concentration beside the values); 210,000 tested, 0.42% active; AID 1224905, 2016;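 active = replicate mean at 85% of control or lower, very high polarization wells dropped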;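 note: wells of about 15 µL received 100 nL stock; the first replicate is given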
# HCMV NEC inh – inhibitors of HCMV UL50-UL53 interaction, biochemical, HTRF; HCMV UL50-UL53 nuclear egress complex (human cytomegalovirus); normalized percent inhibition; inhibition, % (test concentration not listed); actives 0.15% (n = 190,000); in the data active means inhibition above about 27%, passing the limit was not always enough
# Active calls of the source: *; / = no result given. Shown is part of a subset that was picked to be rich in hits.
mol,HCMV NEC inh,GIV Gai3 FP
O=C(NCCC1=CCCCC1)C1CCCN(C(=O)c2cnn(-c3ccccc3)c2-n2cccc2)C1 (centres undefined),-9,102
C=CC(=O)Nc1sc2c(c1C(=O)OCC)CCCC2,-4,/
CCOC(=O)c1c(/N=C/C2C(=O)NC(=S)NC2=O)sc2c1CCCCC2,/,-21*
CCOC(=O)c1c(NC(=O)COc2ccc(C(C)(C)C)cc2)sc2c1CCCC2,-53,103
Cc1cccc(N2CCN(C(=O)c3ccc(NC(=O)c4nsc5ccccc45)cc3)CC2C)c1 (centres undefined),/,105
O=C1NC(=O)C(=Cc2ccc(-c3ccccc3)o2)C(=O)N1,/,93
CC(C=C1C(=O)NC(=O)NC1=O)c1ccccc1 (centres undefined),62*,113
CCn1nc(-c2ccccc2)c(-c2ccccc2)c(C(=O)Nc2nc(C)c(C(C)=O)s2)c1=O,-27,98
Cc1ccc(SCC(=O)Nc2nnc(SCc3ccccc3)s2)cc1,-11,/
C1=C(c2ccccc2)Nc2ncnn2C1c1cccs1 (centres undefined),/,-24*
C1=C(c2ccc3c(c2)OCO3)Nc2ncnn2C1c1cccs1 (centres undefined),/,-22*
CN(C)c1ccc(C2C=C(c3ccccc3)Nc3ncnn32)cc1 (centres undefined),/,134
C1=C(c2ccccc2)Nc2ncnn2C1c1ccc2c(c1)OCO2 (centres undefined),-30,103
CCC(Oc1ccc(F)cc1)C(=O)Nc1nc2c(s1)CCCC2 (centres undefined),-14,98
CCCN(CCC)C(=O)/C=C/c1cc(OC)c(OC)c(OC)c1,-33,105
COc1cc(/C=C/C(=O)/C=C/c2ccc(N(C)C)cc2)cc(OC)c1OC,/,-64*
CC(C)(C)c1ccc(N=Cc2ccccc2O)cc1,-49,106
CN1C(=O)c2ccccc2C(C(=O)O)C1c1ccc(F)cc1 (centres undefined),0,102
CC(C)CNc1cc(NCCO)c2c3c(onc13)-c1ccccc1C2=O,/,-54*
CCCCNc1cc(NC2CCCCC2)c2c3c(onc13)-c1ccccc1C2=O,-13,159
CC(C)CNc1cc(Cl)c2noc3c2c1C(=O)c1ccccc1-3,/,-55*
CC1CC(C)CN(c2cc(NCCO)c3c4c(onc24)-c2ccccc2C3=O)C1 (centres undefined),-118,118
O=C1c2ccccc2-c2onc3c(NCCO)cc(NC4CCCCC4)c1c23,-96,45*
Cc1ccc(Sc2cc(Cl)c3noc4c3c2C(=O)c2ccccc2-4)cc1,/,103
COCCn1c(N)c(C(=O)NS(=O)(=O)c2ccc(C)cc2)c(=O)[nH]c1=O,-12,/

# Shown with each value named: part of the list above.
smiles: CC1CC(C)CN(c2cc(NCCO)c3c4c(onc24)-c2ccccc2C3=O)C1 (centres undefined)
  HCMV NEC inh: -118	GIV Gai3 FP: 118
smiles: O=C1c2ccccc2-c2onc3c(NCCO)cc(NC4CCCCC4)c1c23
  HCMV NEC inh: -96	GIV Gai3 FP: 45*

# Returning to the listing, repeating the four entries before the break.
mol,HCMV NEC inh,GIV Gai3 FP
CC1CC(C)CN(c2cc(NCCO)c3c4c(onc24)-c2ccccc2C3=O)C1 (centres undefined),-118,118
O=C1c2ccccc2-c2onc3c(NCCO)cc(NC4CCCCC4)c1c23,-96,45*
Cc1ccc(Sc2cc(Cl)c3noc4c3c2C(=O)c2ccccc2-4)cc1,/,103
COCCn1c(N)c(C(=O)NS(=O)(=O)c2ccc(C)cc2)c(=O)[nH]c1=O,-12,/
CC1CC1c1ccc(CCC(=O)Nc2ncc(Cc3cccc(Cl)c3)s2)o1 (centres undefined),/,122
Nc1ccccc1C(=O)CSc1ccccn1,-26,107
CC(C)CN1C(=O)/C(=C/c2c(N3CCN(CCO)CC3)nc3ccccn3c2=O)SC1=S,-86,41*
O=C(O)CCCN1C(=O)/C(=C/c2c(N3CCN(Cc4ccccc4)CC3)nc3ccccn3c2=O)SC1=S,-1,146
CCCCn1c(-c2cccs2)nc2ccccc21,-22,103
COc1cccc2c1C(=O)c1c(O)c3c(c(O)c1C2=O)C[C@@](O)(C(=O)CO)CC3OC1CC(N)C(O)C(C)O1 (some centres undefined),-163,/
COc1cccc2c1C(=O)c1c(O)c3c(c(O)c1C2=O)C[C@@](O)(C(=O)CO)C[C@@H]3O[C@H]1C[C@H](N)[C@H](O)[C@H](C)O1,-178,-14*
CC(C)(CNC(=O)c1n[nH]c2ccccc12)N1CCCCC1,11,/
CCN1/C(=C/C2=CC(=O)CC(C)(C)C2)Sc2ccccc21,/,-24*
CCN1C(=O)CCSc2ccccc21,-41,104
CCN1/C(=C\C(=O)C2CC2)Sc2ccccc21,-27,100
CCN1/C(=C\C=C2C(=O)OC(C)(C)OC2=O)Sc2ccccc21,-25,-34*
COc1ccccc1N1CCN(c2ccc(-c3nc(-c4ccccc4C)no3)cc2[N+](=O)[O-])CC1,-17,110
CN(C)Cc1c(O)ccc2cc(-c3nc4ccccc4s3)c(=O)oc12,-62,-45*
CC1CCN(Cc2c(O)ccc3cc(-c4nc5ccccc5s4)c(=O)oc23)CC1,-45,-32*
COc1ccc(-c2cc3ccc(O)c(CN4CCN(CCO)CC4)c3oc2=O)cc1OC,/,125
CN1CCN(Cc2c(O)ccc3cc(-c4nc5ccccc5n4C)c(=O)oc23)CC1,-63,131
O=c1oc2c(CN3CCOCC3)c(O)ccc2cc1-c1ccccc1,/,102
COc1cccc2cc(-c3nc4ccccc4s3)c(=O)oc12,-9,/
O=c1oc2c(CN3CCCCCC3)c(O)ccc2cc1-c1nc2ccccc2s1,-64,-32*
O=c1oc2c(CN3CCN(CCO)CC3)c(O)ccc2cc1-c1nc2ccccc2s1,-86,-45*
CCOc1ccc(NC(=O)NCCn2c(-c3ccc(F)cc3)nc3ccccc32)cc1,8,108
CO/N=C1/CC(C)(C)Cc2c(C(=O)O)sc(SC)c21,-59,104
O=C(NC1CC1)C1=COCCO1,-29,/
O=c1oc2c(CN3CCCCC3)c(O)ccc2cc1-c1nc2ccccc2s1,-47,-32*
O=c1oc2ccccc2cc1-c1nc2ccccc2s1,-10,101
CCN1/C(=C/C=C/c2n(CC)c3cc(Cl)ccc3[n+]2Cc2ccccc2)N(Cc2ccccc2)c2ccc(Cl)cc21,/,-62*
CCN1/C(=C\C=C\c2n(CC)c3cc([N+](C)(C)C)ccc3[n+]2CC)N(CC)c2cc([N+](C)(C)C)ccc21,/,94
CC(C)OC1(c2ccccc2)OC(=O)c2ccccc21 (centres undefined),/,100
CC(C)OC1(O)C(=O)c2ccccc2C(=O)C1(O)OC(C)C (centres undefined),99*,/
Cc1c(Cl)cccc1Nc1c(C(=O)N2CCOCC2)cnc2ccccc12,-14,99
COc1cc(OC)c(Nc2c(C(=O)N3CCOCC3)cnc3ccccc23)cc1Cl,-28,85*
CCN(CC)c1ccc(/C=N/N=C(\N)c2nonc2N)cc1,-30,107
Cn1c(=O)c(Nc2ccccc2)c2c3c(cccc31)C(=O)c1ccccc1-2,/,116
Cn1c(=O)c(N2CCCCC2)c2c3c(cccc31)C(=O)c1ccccc1-2,/,-32*
Cn1cc2c(n1)c(=O)n(Cc1ccc(Cl)cc1)c1nn(Cc3cc(F)cc(F)c3)c(=O)n21,-6,99
O=C(O)CCc1nc2ccc(C(=O)O)cc2[nH]1,/,100
C=Cc1c(C)c2cc3[nH]c(cc4nc(cc5nc(cc1[nH]2)C(C)=C5CCC(=O)O)C(CCC(=O)O)=C4C)c(C)c3C=C,86*,106
CN(C)c1ccc(C2C3=C(CC(C)(C)CC3=O)NC3=C2C(=O)CC(C)(C)C3)cc1,/,114
CC(=O)N1CC(C(=O)O)Oc2ccc(Cl)cc21 (centres undefined),-7,106
Cc1ccc(OCC(=O)O)c2c1CCC2,4,98
CCCCOc1ccc(CNC(=O)c2ccc(-c3nc(CN4CCc5ccccc54)c(C)o3)cc2)cc1,/,103
